From US20140308678A1 (ONCOTHERAPY SCIENCE, published 2014)

Sequences of proteins named here, by UniProt entry; tags and fusion partners are left off. Residues count along the entry.
UniProt P08238, 2-724 limits assumed: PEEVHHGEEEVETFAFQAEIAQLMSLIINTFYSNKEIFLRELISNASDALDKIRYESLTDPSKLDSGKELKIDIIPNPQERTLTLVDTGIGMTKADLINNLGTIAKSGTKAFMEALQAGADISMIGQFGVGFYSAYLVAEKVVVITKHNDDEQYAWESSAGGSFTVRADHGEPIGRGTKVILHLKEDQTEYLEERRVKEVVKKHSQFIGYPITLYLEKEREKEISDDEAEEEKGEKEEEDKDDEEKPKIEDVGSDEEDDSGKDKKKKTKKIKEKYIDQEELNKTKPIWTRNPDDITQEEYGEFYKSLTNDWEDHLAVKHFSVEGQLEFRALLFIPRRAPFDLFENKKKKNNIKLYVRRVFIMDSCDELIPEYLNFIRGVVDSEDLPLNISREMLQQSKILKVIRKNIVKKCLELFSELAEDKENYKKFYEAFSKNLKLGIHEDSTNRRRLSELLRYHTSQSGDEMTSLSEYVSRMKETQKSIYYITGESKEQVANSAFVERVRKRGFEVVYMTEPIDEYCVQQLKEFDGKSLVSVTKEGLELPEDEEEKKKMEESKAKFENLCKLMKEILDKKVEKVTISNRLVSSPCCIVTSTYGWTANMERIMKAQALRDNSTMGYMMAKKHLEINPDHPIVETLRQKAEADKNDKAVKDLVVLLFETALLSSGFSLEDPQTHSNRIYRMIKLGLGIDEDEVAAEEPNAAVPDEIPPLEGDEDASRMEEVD
UniProt P08238, whole entry: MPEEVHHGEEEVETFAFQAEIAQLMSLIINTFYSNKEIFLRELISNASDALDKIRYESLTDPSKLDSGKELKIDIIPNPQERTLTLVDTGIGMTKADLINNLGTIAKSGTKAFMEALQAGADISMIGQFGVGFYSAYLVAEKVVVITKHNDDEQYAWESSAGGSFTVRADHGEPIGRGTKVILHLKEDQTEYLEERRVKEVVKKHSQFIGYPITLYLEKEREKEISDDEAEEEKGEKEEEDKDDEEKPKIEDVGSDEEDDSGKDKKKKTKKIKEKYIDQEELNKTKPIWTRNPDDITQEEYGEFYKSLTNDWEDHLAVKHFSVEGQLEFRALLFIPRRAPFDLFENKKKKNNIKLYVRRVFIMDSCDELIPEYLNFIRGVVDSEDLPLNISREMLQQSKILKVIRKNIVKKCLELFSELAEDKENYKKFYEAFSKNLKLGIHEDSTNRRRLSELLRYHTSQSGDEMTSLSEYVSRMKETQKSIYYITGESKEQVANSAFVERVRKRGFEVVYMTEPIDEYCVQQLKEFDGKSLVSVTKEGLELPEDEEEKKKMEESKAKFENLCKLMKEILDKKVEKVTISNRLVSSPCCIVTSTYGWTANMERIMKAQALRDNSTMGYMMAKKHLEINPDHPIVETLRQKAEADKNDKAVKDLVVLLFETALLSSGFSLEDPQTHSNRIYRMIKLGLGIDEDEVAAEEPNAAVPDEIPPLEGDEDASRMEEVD

Legend:
[1] = target: T1, HSP90AB1 (endogenous, 293T cells) (human, UniProt P08238); test: anti-FLAG immunoprecipitation from FLAG-SMYD2 293T cells, silver staining and mass spectrometry (FIG. 3A)
T1 construct: Endogenous protein of 293T cells; also called endogenous HSP90
Source text: (§1) [FIG. 3A-D] […] Part A depicts the silver staining of immunoprecipitates from FLAG-mock or FLAG-SMYD2 expressing cells. 293T cells were transfected with FLAG-Mock or FLAG-SMYD2 and immunoprecipitated using an anti-FLAG M2 agarose. Immunoprecipitates were subject to SDS-PAGE and silver staining, followed by mass spectrometry. Part B depicts that 293T cells were co-transfected with HA-HSP90AB1 or HA-Mock and FLAG-SMYD2 expression vectors, and HA-immunoprecipitates were immunoblotted with anti-FLAG and anti-HA antibodies. Part C depicts the interaction of FLAG-SMYD2 with endogenous HSP90. The interaction was confirmed by Western blot of FLAG-immunoprecipitates using anti-HSP90 and anti-FLAG antibodies. Part D depicts that the region included the SET domain of SMYD2 is required for interaction with HSP90AB1. 293T cells were co-transfected with an HA-HSP90AB1 expression vector and six different lengths of FLAG-SMYD2 expression vectors ([1-433], [1-100], [1-250], [100-433], [250-433] and [330-433]). Immunoprecipitation was performed using anti-HA agarose beads, and samples were immunoblotted with anti-FLAG and anti-HA antibodies.
(§2) In order to clarify how SMYD2 promotes cancer cell growth, the present inventors attempted to identify interacting partners of SMYD2. […]

[2] = target: T2, HA-HSP90AB1 (WT) (human, UniProt P08238); test: co-immunoprecipitation from co-transfected 293T cells, Western blot (FIG. 3B)
T2 construct: Expressed in 293T cells; also called HA-tagged HSP90AB1; not shown: HA tag
Source text: as §1, §2

B1: FLAG-SMYD2 (enzyme)
chain: MRAEGLGGLERFCSPGKGRGLRALQPFQVGDLLFSCPAYAYVLTVNERGNHCEYCFTRKEGLSKCGRCKQAFYCNVECQKEDWPMHKLECSPMVVFGENWNPSETVRLTARILAKQKIHPERTPSEKLLAVKEFESHLDKLDNEKKDLIQSDIAALHHFYSKHLGFPDNDSLVVLFAQVNCNGFTIEDEELSHLGSAIFPDVALMNHSCCPNVIVTYKGTLAEVRAVQEIKPGEEVFTSYIDLLYPTEDRNDRLRDSYFFTCECQECTTKDKDKAKVEIRKLSDPPKAEAIRDMVRYARNVIEEFRRAKHYKSPSELLEICELSQEKMSSVFEDSNVYMLHMMYQAMGVCLYMQDWEGALQYGQKIIKPYSKHYPLYSLNVASMWLKLGRLYMGLEHKAAGEKALKKAIAIMEVAHGKDHPYISEIKQEIESH
notes: Expressed in 293T cells from a FLAG expression vector; full length SMYD2 (1-433); also called FLAG-SMYD2 (WT); FLAG-SMYD2 [1-433]; not shown: FLAG tag
binding result [1]: binds | binding result [2]: binds
